Active and inactive are the calls of the source.
Columns and labels:
Assay type in all cases: functional, organism-based
Mus musculus [1] = experiment: Antidiabetic activity in STZ-induced diabetic SPF C57/6J male mouse model assessed as decrease in serum TC level at 50 mg/kg/day, po administered for 4 weeks
Mus musculus [2] = experiment: Antidiabetic activity in STZ-induced diabetic SPF C57/6J male mouse model assessed as reduction in blood glucose at 50 mg/kg/day, po administered for 25 days followed by glucose administration on 25th day and measured after 0 to 150 mins by OGTT; conditions: time 25.0 day
Mus musculus [3] = experiment: Antidiabetic activity in STZ-induced diabetic SPF C57/6J male mouse model assessed as decrease in serum TG level at 50 mg/kg/day, po administered for 4 weeks
Mus musculus [4] = experiment: Antidiabetic activity in STZ-induced diabetic SPF C57/6J male mouse model assessed as decrease in fasting blood glucose at 50 mg/kg/day, po administered for 4 weeks

Measured: Activity

C[C@H]1O[C@H](O[C@H]2[C@H](O)[C@@H](O)[C@@H](O[C@H]3[C@H](O)[C@@H](O)C(O)O[C@@H]3CO)O[C@@H]2CO)[C@H](O)[C@@H](O)[C@@H]1N[C@H]1C=C(CO)[C@@H](O)[C@H](O)[C@H]1O (some centres undefined)
active: all assays above
